Assay results from patent EP4837910A1, “ISOXAZOLINE COMPOUND AND PREPARATION METHOD THEREFOR, HERBICIDAL COMPOSITION, AND USE” (dated 2026).

How the values were obtained:
Conditions in all cases: Dosage 240 g a.i./ha, after 4 weeks in greenhouse, fresh weight control rate
[1] = test system: Monocotyledonous and dicotyledonous weed; test: Pre-emergence test on weeds (greenhouse, sprayed immediately after sowing)
Triticum aestivum = test: Pre-emergence test, crop damage (greenhouse, sprayed immediately after sowing)
Zea mays = test: as above

| SMILES | activity level of plant damage (growth control rate), Digitaria sanguinalis [1] | activity level of plant damage (growth control rate), Triticum aestivum (Triticum aestivum) | activity level of plant damage (growth control rate), Zea mays (Zea mays) | activity level of plant damage (growth control rate), Descurainia sophia [1] | activity level of plant damage (growth control rate), Lolium multiflorum [1] | activity level of plant damage (growth control rate), Setaria viridis [1] |
| --- | --- | --- | --- | --- | --- | --- |
| C=C[C@]1(C(=O)N[C@@H](COC)C(=O)N(C)OC)CC(c2cc(F)cc(F)c2)=NO1 | 5 (Level 5: growth control rate greater than or equal to 50% and less than 70%) | 0 | 2 (Level 2: growth control rate greater than or equal to 10% and less than 20%) | – | – | – |
| C=CC1(C(=O)N[C@H](C)C(=O)NOC)CC(c2cccc(C(F)(F)F)c2)=NO1 (stereo partly shown) | – | 2 (Level 2: growth control rate greater than or equal to 10% and less than 20%) | 0 | 6 (Level 6: growth control rate greater than or equal to 70% and less than 80%) | – | – |
| CC[C@]1(C(=O)N[C@@H](C)C(=O)N(C)OC)CC(c2cc(Cl)cc(Cl)c2)=NO1 | 9 | 1 (Level 1: growth control rate less than 10%) | 1 (Level 1: growth control rate less than 10%) | – | 9 | 9 |
| C=CC1(C(=O)N[C@@H](C)C(=O)N(C)OC)CC(c2cc(F)cc(N(C)OC)c2)=NO1 (stereo partly shown) | – | 0 | 0 | 5 (Level 5: growth control rate greater than or equal to 50% and less than 70%) | – | – |
| C=C[C@@]1(C(=O)N[C@@H](C)C(=O)N(C)OC)CC(c2cc(C)cc(F)c2)=NO1 | 5 (Level 5: growth control rate greater than or equal to 50% and less than 70%) | 2 (Level 2: growth control rate greater than or equal to 10% and less than 20%) | 0 | – | 5 (Level 5: growth control rate greater than or equal to 50% and less than 70%) | 5 (Level 5: growth control rate greater than or equal to 50% and less than 70%) |
| C=C[C@@]1(C(=O)N[C@@H](CC2CC2)C(=O)N(C)OC)CC(c2cc(F)cc(F)c2)=NO1 | – | 0 | 0 | 5 (Level 5: growth control rate greater than or equal to 50% and less than 70%) | – | – |
| C=C[C@@]1(C(=O)N[C@@H](CCSC)C(=O)N(C)OC)CC(c2cc(F)cc(F)c2)=NO1 | – | 1 (Level 1: growth control rate less than 10%) | 0 | 5 (Level 5: growth control rate greater than or equal to 50% and less than 70%) | – | – |
| C=C[C@]1(C(=O)N[C@@H](C)C(=O)N(C)OC)CC(c2cc(F)cc(OC)c2)=NO1 | 8 (Level 8: growth control rate greater than or equal to 90% and less than 100%) | 2 (Level 2: growth control rate greater than or equal to 10% and less than 20%) | 2 (Level 2: growth control rate greater than or equal to 10% and less than 20%) | 7 (Level 7: growth control rate greater than or equal to 80% and less than 90%) | – | 8 (Level 8: growth control rate greater than or equal to 90% and less than 100%) |
| C=CC1(C(=O)N[C@@H](C)C(=O)N(C)OC)CC(c2cccc(C(F)(F)F)c2)=NO1 (stereo partly shown) | – | 1 (Level 1: growth control rate less than 10%) | 1 (Level 1: growth control rate less than 10%) | 6 (Level 6: growth control rate greater than or equal to 70% and less than 80%) | 9 | 6 (Level 6: growth control rate greater than or equal to 70% and less than 80%) |
| CC[C@]1(C(=O)N[C@@H](C)C(=O)NOC)CC(c2cc(F)cc(OC)c2)=NO1 | 7 (Level 7: growth control rate greater than or equal to 80% and less than 90%) | 1 (Level 1: growth control rate less than 10%) | 0 | 9 | – | – |
| C=C[C@@]1(C(=O)N[C@@H](C)C(=O)NOCC)CC(c2cc(Br)cc(C(F)(F)F)c2)=NO1 | – | 1 (Level 1: growth control rate less than 10%) | 1 (Level 1: growth control rate less than 10%) | 9 | 6 (Level 6: growth control rate greater than or equal to 70% and less than 80%) | – |
| C=C[C@]1(C(=O)N[C@H](C)C(=O)NOC)CC(c2cc(F)cc(C(F)(F)F)c2)=NO1 | – | 0 | 0 | 5 (Level 5: growth control rate greater than or equal to 50% and less than 70%) | – | – |
| C=C(C)[C@@]1(C(=O)N[C@@H](C)C(=O)N(C)OC)CC(c2cc(C)cc(F)c2)=NO1 | – | 0 | 0 | 8 (Level 8: growth control rate greater than or equal to 90% and less than 100%) | – | – |
| CC[C@]1(C(=O)N[C@@H](C)C(=O)N(C)OC)CC(c2cc(C)cc(Cl)c2)=NO1 | 9 | 0 | 1 (Level 1: growth control rate less than 10%) | – | – | 5 (Level 5: growth control rate greater than or equal to 50% and less than 70%) |
| C=C(C)[C@@]1(C(=O)N[C@@H](C)C(=O)N(C)OC)CC(c2cc(C)cc(Cl)c2)=NO1 | 9 | 1 (Level 1: growth control rate less than 10%) | 2 (Level 2: growth control rate greater than or equal to 10% and less than 20%) | 8 (Level 8: growth control rate greater than or equal to 90% and less than 100%) | 7 (Level 7: growth control rate greater than or equal to 80% and less than 90%) | 8 (Level 8: growth control rate greater than or equal to 90% and less than 100%) |
| CON(C)C(=O)[C@H](C)NC(=O)[C@@]1(CF)CC(c2cc(F)cc(F)c2)=NO1 | – | 0 | 0 | 6 (Level 6: growth control rate greater than or equal to 70% and less than 80%) | – | – |
| CC[C@]1(C(=O)N[C@@H](C)C(=O)N(C)OC)CC(c2cc(C(F)(F)F)cc(C(F)(F)F)c2)=NO1 | 9 | 0 | 0 | – | 5 (Level 5: growth control rate greater than or equal to 50% and less than 70%) | 9 |
| C=C[C@@]1(C(=O)N[C@H](C)C(=O)N(C)OC)CC(c2cc(Cl)cc(Cl)c2)=NO1 | – | 2 (Level 2: growth control rate greater than or equal to 10% and less than 20%) | 0 | 6 (Level 6: growth control rate greater than or equal to 70% and less than 80%) | – | – |
| CC[C@]1(C(=O)N[C@@H](C)C(=O)N(C)OC)CC(c2cc(F)cc(OC(F)(F)F)c2)=NO1 | 9 | 2 (Level 2: growth control rate greater than or equal to 10% and less than 20%) | 0 | – | 9 | 9 |
| C=C(C)[C@]1(C(=O)N[C@@H](C)C(=O)N(C)OC)CC(c2cc(C)cc(Cl)c2)=NO1 | 9 | 1 (Level 1: growth control rate less than 10%) | 2 (Level 2: growth control rate greater than or equal to 10% and less than 20%) | 8 (Level 8: growth control rate greater than or equal to 90% and less than 100%) | 5 (Level 5: growth control rate greater than or equal to 50% and less than 70%) | 8 (Level 8: growth control rate greater than or equal to 90% and less than 100%) |
| CC[C@@]1(C(=O)N[C@@H](C)C(=O)N(C)OC)CC(c2cc(F)cc(OC)c2)=NO1 | 7 (Level 7: growth control rate greater than or equal to 80% and less than 90%) | 0 | 0 | – | – | 5 (Level 5: growth control rate greater than or equal to 50% and less than 70%) |
| C=C[C@]1(C(=O)N[C@@H](C)C(=O)N(C)OCC(=O)OC)CC(c2cc(F)cc(F)c2)=NO1 | – | 2 (Level 2: growth control rate greater than or equal to 10% and less than 20%) | 1 (Level 1: growth control rate less than 10%) | – | 5 (Level 5: growth control rate greater than or equal to 50% and less than 70%) | – |
